{
  "source": "patent US7452546B2",
  "about": "“Particles containing agricultural active ingredients” (priority 1997, dated 2008)",
  "origin": "cited, not measured here",
  "tested_on": "plants",
  "conditions": "The Pesticide Manual, Eleventh Edition, 1997; cited from earlier work",
  "data": [
    {"smiles": "CC(C)(C)C(=O)C(Oc1ccc(Cl)cc1)n1cncn1", "note": "(stereo not shown) [triadimefon]", "values": [
      {"measurement": "phytotoxicity to plants", "value": "can be phytotoxic to ornamental plants"}
    ]}
  ]
}
